{"sequences": {"note": "Chains of the proteins cited; added tags and fusions are not shown. Lines headed by an entry give the natural chain unless they say otherwise; changes in a name come on top.", "UniProt P24666": "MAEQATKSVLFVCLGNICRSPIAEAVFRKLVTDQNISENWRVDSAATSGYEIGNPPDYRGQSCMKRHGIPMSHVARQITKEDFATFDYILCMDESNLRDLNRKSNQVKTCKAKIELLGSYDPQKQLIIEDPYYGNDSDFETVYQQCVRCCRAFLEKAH"}, "source": "PubChem BioAssay AID651560", "about": "(Sanford-Burnham Center for Chemical Genomics, 2012)", "note": "Only a part is listed here, and it is no random draw. Active and inactive are the calls of the source.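 The calls were made as follows: active = compounds that cut the enzyme signal by at least half of the control window in the single-dose screen; inactive = the rest.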"}
{"biological_target": "Low molecular weight phosphotyrosine protein phosphatase (Homo sapiens) (UniProt P24666)", "experiment": "inhibition of human LMPTP-A enzyme – biochemical, fluorescence intensity, uHTS, primary screen (AID 651560);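 also: plate controls were DMSO wells with enzyme plus substrate for no effect and substrate without enzyme for full effect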", "conditions": "recombinant LMPTP-A, OMFP fluorogenic substrate, at 20 µM, active compounds read high", "how_it_was_run": "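Assay system: LMPTP-A, protein tyrosine phosphatase of low molecular weight / Medium: pH 6.0 Bis-Tris buffer with DTT and Triton X-100 / Schedule: 50 min enzyme reaction at room temperature, protected from light / Measured by: endpoint fluorescence intensity from OMFP dephosphorylation / Read-out basis: % inhibition relative to no-enzyme and uninhibited control wells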"}
{"smiles": "O=C(OC1CN2CCC1CC2)c1ccccc1", "note": "(stereo not given)", "inhibition": "inactive: 1.28%"}
{"smiles": "CCC(=O)N1C2C3N(C(=O)CC)C1C1N(C(=O)CC)C(C(N1C(=O)CC)N3C(=O)CC)N2C(=O)CC", "inhibition": "inactive: 0.719%"}
{"smiles": "COC(=O)c1cc2c(s1)N=C(c1ccccc1)N(C)P2(=O)N1CCOCC1", "note": "(stereo not given)", "inhibition": "inactive: -1.39%"}
{"smiles": "CC(=O)NC(SC(=S)N(CC(C)C)CC(C)C)C(Cl)(Cl)Cl", "note": "(stereo not given)", "inhibition": "inactive: -1.21%"}
{"smiles": "Cc1ccc(OP(=O)(Nc2ccccn2)Oc2ccc(C)cc2)cc1", "inhibition": "inactive: -1.12%"}
{"smiles": "CC(NC(=O)COC(=O)C(O)(c1ccccc1)c1ccccc1)c1ccccc1", "note": "(stereo not given)", "inhibition": "inactive: 0.75%"}
{"smiles": "Cc1ccccc1OP(=O)(Nc1ccccn1)Oc1ccccc1C", "inhibition": "inactive: 1.38%"}
{"smiles": "O=c1c2cc([N+](=O)[O-])ccc2[nH]c2c([N+](=O)[O-])cc([N+](=O)[O-])cc12", "inhibition": "inactive: 1.11%"}
{"smiles": "CN(C)C(=O)Oc1noc2ccccc12", "inhibition": "inactive: 0.365%"}
{"smiles": "c1ccc(-c2nn[nH]n2)c(-c2nn[nH]n2)c1", "inhibition": "inactive: -2.34%"}
{"smiles": "Cc1ccc(NP(=O)(Oc2cccc(C)c2)Oc2cccc(C)c2)nc1", "inhibition": "inactive: -1.72%"}
{"smiles": "O=C(NC1CCS(=O)(=O)C1)NP(=S)(Oc1ccccc1)Oc1ccccc1", "note": "(stereo not given)", "inhibition": "inactive: 0.771%"}
{"smiles": "CCNC(=S)/N=C(\\N)N[N+](=O)[O-]", "inhibition": "inactive: 2.27%"}
{"smiles": "O=P1(N(CCCl)CCCl)OCCC2CCCCN21", "note": "(stereo not given)", "inhibition": "inactive: -12%"}
{"smiles": "Cc1ccccc1CN(C)C(=O)COC(=O)C(O)(c1ccccc1)c1ccccc1", "inhibition": "inactive: -0.09%"}
{"smiles": "C[C@H]1OP(=O)(Oc2ccccc2)C[C@@H]2O[C@@H]21", "note": "(stereo not given in full)", "inhibition": "inactive: 0.563%"}
{"smiles": "C[C@@H]1C=CCP(=O)(Oc2ccccc2)O1", "note": "(stereo not given in full)", "inhibition": "inactive: -1.28%"}
{"smiles": "CC(=O)c1ccc(N2CC2c2ccncc2)cc1", "note": "(stereo not given)", "inhibition": "inactive: -1.35%"}
{"smiles": "N#C/C(=C\\c1ccc(N(CCBr)CCBr)cc1)C(N)=O", "inhibition": "inactive: -0.335%"}
{"smiles": "COC(=O)C1(C)COP(=O)(NCc2ccccc2)OC1", "note": "(stereo not given)", "inhibition": "inactive: -0.876%"}
{"smiles": "CC(=O)Nc1ccc([As](=O)(O)O)c(O)c1", "inhibition": "inactive: -0.221%"}
{"smiles": "CC(=O)Nc1ccc(Oc2c([N+](=O)[O-])cc([N+](=O)[O-])cc2[N+](=O)[O-])cc1", "inhibition": "inactive: -1.02%"}
{"smiles": "O=P1(Nc2nc3ccc(Cl)cc3s2)COc2ccccc2O1", "note": "(stereo not given)", "inhibition": "inactive: -1.52%"}
{"smiles": "CCOc1ccc(C2=NCC(CBr)S2)cc1", "note": "(stereo not given)", "inhibition": "inactive: 0.0213%"}
{"smiles": "CC(C)(C)C(=O)NC(Sc1ccccc1)C(Cl)(Cl)Cl", "note": "(stereo not given)", "inhibition": "inactive: -0.412%"}
{"smiles": "CCc1cc(O)c([N+](=O)[O-])c(C)c1[N+](=O)[O-]", "inhibition": "inactive: -8.41%"}
{"smiles": "O=P(Nc1nccs1)(c1ccccc1)c1ccccc1", "inhibition": "inactive: 0.495%"}
{"smiles": "CC(C)C(=O)NC(Sc1ccccc1)C(Cl)(Cl)Cl", "note": "(stereo not given)", "inhibition": "inactive: 1.01%"}
{"smiles": "c1nnnn1CCn1cnnn1", "inhibition": "inactive: -6.94%"}
{"smiles": "O=[As](O)(c1ccccc1)c1ccc(O)cc1", "inhibition": "inactive: -0.631%"}
{"smiles": "CC(=O)NC(SC(=S)N(C)C)C(Cl)(Cl)Cl", "note": "(stereo not given)", "inhibition": "inactive: -0.779%"}
{"smiles": "O=[N+]([O-])c1ncn(CCn2cnc([N+](=O)[O-])n2)n1", "inhibition": "inactive: -1.26%"}
{"smiles": "O=[N+]([O-])c1ccc(O)c(/C=N/Nc2ccc([N+](=O)[O-])cc2[N+](=O)[O-])c1", "inhibition": "inactive: 0.619%"}
{"smiles": "O=C(OC1CN2CCC1CC2)c1cccc(Cl)c1", "note": "(stereo not given)", "inhibition": "inactive: -2.67%"}
{"smiles": "C(Cc1nn[nH]n1)Cc1nn[nH]n1", "inhibition": "inactive: -1.05%"}
{"smiles": "Nc1ccc([As](=O)(O)c2ccc([N+](=O)[O-])cc2)cc1", "inhibition": "inactive: -1.17%"}
{"smiles": "CN(C)C1(CNC(=O)c2ccc(Cl)c(S(N)(=O)=O)c2)CCCCC1", "inhibition": "inactive: -0.981%"}
{"smiles": "O=P(Nc1ccccn1)(c1ccc(Br)cc1)c1ccc(Br)cc1", "inhibition": "inactive: 1.41%"}
{"smiles": "COc1ccc(N)c([N+](=O)[O-])c1[N+](=O)[O-]", "inhibition": "inactive: 2.15%"}
{"smiles": "Nc1ccc(CCCCOc2ccccc2)cc1", "inhibition": "inactive: -0.105%"}
{"smiles": "O=P(Nc1nc2ccccc2s1)(c1ccccc1)c1ccccc1", "inhibition": "inactive: -0.612%"}
{"smiles": "C[C@H]1OP(=O)(Oc2ccccc2)[C@H](O)[C@H](O)[C@H]1N=[N+]=[N-]", "note": "(stereo not given in full)", "inhibition": "inactive: 0.123%"}
{"smiles": "O=[N+]([O-])c1ncn(CCn2ncnc2[N+](=O)[O-])n1", "inhibition": "inactive: -1.81%"}
{"smiles": "CC(C)(C)C(=O)NC(Sc1ccncn1)C(Cl)(Cl)Cl", "note": "(stereo not given)", "inhibition": "inactive: 0.0345%"}
{"smiles": "O=C(O)CNc1ccc([As](=O)(O)O)cc1", "inhibition": "inactive: 1.44%"}
{"smiles": "COC(=O)C1(C)COP(=O)(Nc2ccccc2)OC1", "note": "(stereo not given)", "inhibition": "inactive: -1.58%"}
{"smiles": "O=[N+]([O-])c1cccc(NC2=NCC(CBr)S2)c1", "note": "(stereo not given)", "inhibition": "inactive: 1.77%"}
{"smiles": "O=P1(N(CCCl)CCCl)OCCCS1", "note": "(stereo not given)", "inhibition": "inactive: -3.2%"}
{"smiles": "O=C(Nc1cc([As](=O)(O)O)ccc1O)c1ccccc1", "inhibition": "inactive: -1.58%"}
{"smiles": "CCN(/C(=N/P(=O)(N1CCOCC1)N1CCOCC1)N1CCOCC1)c1ccc(OC)cc1", "inhibition": "inactive: -1.05%"}
{"smiles": "Nc1ccc([As](=O)(O)c2ccc(N)cc2)cc1", "inhibition": "inactive: 3.6%"}
{"smiles": "C[N+]1=C2C=CC=CC=C2SC12C([N+](=O)[O-])=CC([N+](=O)[O-])=C[C-]2[N+](=O)[O-]", "note": "(stereo not given)", "inhibition": "active: 70.8%"}
{"smiles": "CC1CCN(C(=O)Oc2c(Cl)cc(Cl)c3cccnc23)CC1", "inhibition": "inactive: 1.14%"}
{"smiles": "c1cc(-c2nn[nH]n2)ccc1-c1nn[nH]n1", "inhibition": "inactive: -0.938%"}
{"smiles": "CC(C)c1nc(Nc2ccccc2)n(P(=O)(N(C)C)N(C)C)n1", "inhibition": "inactive: -1.35%"}
{"smiles": "CC(C)=N/N=C(\\N)N[N+](=O)[O-]", "inhibition": "inactive: 4.62%"}
{"smiles": "CN(C)C(=O)OCCc1n(C)cc[n+]1C", "inhibition": "inactive: -9.5%"}
{"smiles": "COc1ccc(C2=NCC(CBr)S2)cc1", "note": "(stereo not given)", "inhibition": "inactive: -2.74%"}
{"smiles": "Cc1ccc(NP(=O)(Oc2ccccc2)Oc2ccccc2)nc1", "inhibition": "inactive: -1.35%"}
{"smiles": "O=[N+]([O-])c1cc([N+](=O)[O-])c(CCNc2ccccc2)c([N+](=O)[O-])c1", "inhibition": "inactive: 3.87%"}
{"smiles": "CCc1nc2c(n1)c1c(non1O)c1c2no[n+]1[O-]", "inhibition": "inactive: -0.815%"}
{"smiles": "CC(=O)N1C2C3N(C(C)=O)C1C1N(C(C)=O)C(C(N1C(C)=O)N3C(C)=O)N2C(C)=O", "inhibition": "inactive: -3.16%"}
{"smiles": "O=[N+]([O-])c1cccc2n[nH]nc12", "inhibition": "inactive: -1.77%"}
{"smiles": "Oc1ccccc1CNc1ccccn1", "inhibition": "inactive: 3.89%"}
{"smiles": "O=C(NC(Sc1ccncn1)C(Cl)(Cl)Cl)c1ccccc1", "note": "(stereo not given)", "inhibition": "inactive: -1.89%"}
{"smiles": "Nc1cc(N)c2nonc2c1[N+](=O)[O-]", "inhibition": "inactive: 3.91%"}
{"smiles": "CC(C)CC(=O)NC(Sc1ccc(Cl)cc1)C(Cl)(Cl)Cl", "note": "(stereo not given)", "inhibition": "inactive: 0.595%"}
{"smiles": "O=[N+]([O-])C1C(O)C(O)C([N+](=O)[O-])C(O)C1O", "note": "(stereo not given)", "inhibition": "inactive: 0.313%"}
{"smiles": "CN(C(=O)Cc1ccc(Cl)c(Cl)c1)[C@H]1CCCC[C@H]1N1CCCC1", "inhibition": "inactive: 0.84%"}
{"smiles": "Cc1ccc(N/C(=N/P(=O)(N2CCOCC2)N2CCOCC2)N2CCOCC2)cc1", "inhibition": "inactive: 0.675%"}
{"smiles": "NC(=O)c1cc([N+](=O)[O-])cc([N+](=O)[O-])c1N", "inhibition": "inactive: 1.02%"}
{"smiles": "CN1CCCC(OC(=O)C(c2ccccc2)c2ccccc2)C1", "note": "(stereo not given)", "inhibition": "inactive: -2.34%"}
{"smiles": "Clc1ccc(Cl)c(NC2=NCC(CBr)S2)c1", "note": "(stereo not given)", "inhibition": "inactive: 0.816%"}
{"smiles": "COc1ccccc1OP(=O)(Nc1ccc(C)cn1)Oc1ccccc1OC", "inhibition": "inactive: -0.543%"}
{"smiles": "Cc1ccc(OP(=O)(Nc2nccs2)Oc2ccc(C)cc2)cc1", "inhibition": "inactive: 0.851%"}
{"smiles": "Nc1cccc2ccc([As](=O)(O)O)cc12", "inhibition": "inactive: 1.95%"}
{"smiles": "CCN(N=Nc1nonc1N)c1nonc1N", "inhibition": "inactive: -2.76%"}
{"smiles": "O=P(Nc1nc2ccc(Cl)cc2s1)(c1ccccc1)c1ccccc1", "inhibition": "inactive: 3.07%"}
{"smiles": "CN(C)P(=O)(N(C)C)n1c(Nc2ccccc2)nnc1-c1ccccc1", "inhibition": "inactive: 1.45%"}
{"smiles": "CC(=O)Nc1ccc([As](=O)(O)O)cc1", "inhibition": "inactive: 0.0211%"}
{"smiles": "O=C(O)c1ccccc1[As](=O)(O)O", "inhibition": "inactive: -1.97%"}
{"smiles": "CCCC1OP(N)(=O)OCC1CC", "note": "(stereo not given)", "inhibition": "inactive: -1.31%"}
{"smiles": "Cc1cc(SC(NC(=O)c2ccc(F)cc2)C(Cl)(Cl)Cl)ncn1", "note": "(stereo not given)", "inhibition": "inactive: 0.0869%"}
{"smiles": "CCOP(=O)(Nc1ccccc1)OCC", "inhibition": "inactive: -0.537%"}
{"smiles": "CN(C(=O)Cc1ccc(Cl)c(Cl)c1)[C@H]1CCCC[C@@H]1N1CCCC1", "inhibition": "inactive: -0.213%"}
{"smiles": "Cc1ccc(NP(=O)(Oc2ccccc2F)Oc2ccccc2F)nc1", "inhibition": "inactive: -0.636%"}
{"smiles": "ClCCSc1nnc(-c2cccnc2)o1", "inhibition": "inactive: -1.44%"}
{"smiles": "COC(=O)C1(C)COP(=O)(N2CCCCCC2)OC1", "note": "(stereo not given)", "inhibition": "inactive: -1.38%"}
{"smiles": "CC(C)c1ccc(OP(=O)(Nc2ccccn2)Oc2ccccc2F)cc1", "note": "(stereo not given)", "inhibition": "inactive: -0.502%"}
{"smiles": "CC(C)NC(=O)NP(=O)(Oc1ccccc1)Oc1ccccc1", "inhibition": "inactive: 4.83%"}
{"smiles": "CCN(CC)C(=S)SC(NC=O)C(Cl)(Cl)Cl", "note": "(stereo not given)", "inhibition": "inactive: 0.269%"}
{"smiles": "O=C(OC1CN2CCC1CC2)c1cccc2[nH]cnc12", "note": "(stereo not given)", "inhibition": "inactive: -2.99%"}
{"smiles": "O=[N+]([O-])c1cc([N+](=O)[O-])c(-c2ccn[nH]2)s1", "inhibition": "inactive: 0.477%"}
{"smiles": "C[As](=O)(O)c1cccc(C(=O)O)c1", "inhibition": "inactive: -3.43%"}
{"smiles": "O=[As](O)(c1ccc(O)cc1)c1ccccc1O", "inhibition": "inactive: -0.251%"}
{"smiles": "O=[N+]([O-])c1ccc(-c2cc([N+](=O)[O-])c(O)c([N+](=O)[O-])c2)cc1", "inhibition": "inactive: 1.77%"}
{"smiles": "COc1cc(C(=O)NCC2(N3CCOCC3)CCCCC2)ccc1OCC(C)C", "inhibition": "inactive: -0.592%"}
{"smiles": "Cc1ccc(OP(=O)(Nc2ccc([N+](=O)[O-])cn2)Oc2ccc(C)cc2)cc1", "inhibition": "inactive: 1.5%"}
{"smiles": "[N-]=[N+]=NC1CCCCC1NC(=O)c1cc([N+](=O)[O-])cc([N+](=O)[O-])c1", "note": "(stereo not given)", "inhibition": "inactive: -1.68%"}
{"smiles": "Cc1ccc2nc3c(c(C)c2c1)CC(C(Cl)Cl)S3", "note": "(stereo not given)", "inhibition": "inactive: 2.69%"}
